Data on 4 compounds can be found in ChEMBL document CHEMBL1157575, “Antitumor agents. 272. Structure-activity relationships and in vivo selective anti-breast cancer activity of novel neo-tanshinlactone analogues” (J Med Chem, 2010).

The species named for the test is Homo sapiens. Description: Selectivity for ED50 for human SK-BR-3 to ED50 for human MCF7. The class given is functional.
As for `CCOc1cccc2c1ccc1c3occ(C)c3c(=O)oc21`, the Ratio ED50 came out at 10.

Consider `COc1cccc2c1ccc1c3occ(C)c3c(=O)oc21`, for which the Ratio ED50 came to 10.

As to `Cc1coc2c1c(=O)oc1c3cccc(C(C)C)c3ccc21`, the Ratio ED50 was 10.

As to `CCCc1cccc2c1ccc1c3occ(C)c3c(=O)oc21`, the Ratio ED50 stood at 10.
